Reference: patent US20080255134A1 (Artesian Therapeutics, Inc., priority 2004, published 2008)

Target: beta-receptors from rat cortical membranes
Test: Non-specific β-receptor radioligand binding, [3H]DHA
Conditions: read-out: Non-selective β-adrenergic IC50

## CC(C)NCC(O)COc1ccc(CC(N)=O)cc1 (stereo not shown) [Atenolol, reference compound]
  IC50: 1820 nM
